From patent US20200317660A1, “Quinazolinone Compound and Application Thereof” (LUOXIN PHARMACEUTICAL (SHANGHAI) CO., LTD., priority 2017, published 2020) come the findings set out here.

The chains behind the UniProt entries cited, without tags or fusion partners. Where a name states a change or a piece, a line headed by the entry shows the natural chain unless it says otherwise.
UniProt P42336, whole entry: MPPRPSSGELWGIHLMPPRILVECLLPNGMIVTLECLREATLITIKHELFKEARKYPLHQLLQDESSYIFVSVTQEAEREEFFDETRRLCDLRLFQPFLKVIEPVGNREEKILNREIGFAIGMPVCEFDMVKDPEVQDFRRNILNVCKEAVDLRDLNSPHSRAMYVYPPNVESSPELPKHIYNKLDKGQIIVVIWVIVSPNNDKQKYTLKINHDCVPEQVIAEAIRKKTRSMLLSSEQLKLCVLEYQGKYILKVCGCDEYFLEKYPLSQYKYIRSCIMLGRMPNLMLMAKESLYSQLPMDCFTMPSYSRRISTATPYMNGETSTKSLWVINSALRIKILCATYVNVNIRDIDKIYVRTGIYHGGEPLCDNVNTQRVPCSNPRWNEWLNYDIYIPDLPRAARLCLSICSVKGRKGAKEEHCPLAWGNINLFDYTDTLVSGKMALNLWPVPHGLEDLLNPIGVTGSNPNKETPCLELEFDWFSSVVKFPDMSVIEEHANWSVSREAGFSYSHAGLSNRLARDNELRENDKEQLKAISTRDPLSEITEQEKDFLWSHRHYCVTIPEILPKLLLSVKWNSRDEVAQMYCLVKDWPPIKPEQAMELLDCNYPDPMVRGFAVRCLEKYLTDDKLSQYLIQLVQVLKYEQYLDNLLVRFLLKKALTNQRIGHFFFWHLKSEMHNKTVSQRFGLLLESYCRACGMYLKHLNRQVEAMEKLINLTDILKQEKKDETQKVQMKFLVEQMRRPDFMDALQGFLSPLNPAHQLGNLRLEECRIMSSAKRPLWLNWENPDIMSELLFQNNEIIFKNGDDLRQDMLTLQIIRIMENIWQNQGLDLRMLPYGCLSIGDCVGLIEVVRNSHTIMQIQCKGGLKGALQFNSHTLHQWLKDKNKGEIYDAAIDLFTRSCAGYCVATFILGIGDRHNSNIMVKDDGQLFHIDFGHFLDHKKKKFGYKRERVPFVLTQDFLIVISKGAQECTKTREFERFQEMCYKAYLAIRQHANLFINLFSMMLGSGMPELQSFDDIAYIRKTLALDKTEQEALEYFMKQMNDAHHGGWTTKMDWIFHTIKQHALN
UniProt P42338, whole entry: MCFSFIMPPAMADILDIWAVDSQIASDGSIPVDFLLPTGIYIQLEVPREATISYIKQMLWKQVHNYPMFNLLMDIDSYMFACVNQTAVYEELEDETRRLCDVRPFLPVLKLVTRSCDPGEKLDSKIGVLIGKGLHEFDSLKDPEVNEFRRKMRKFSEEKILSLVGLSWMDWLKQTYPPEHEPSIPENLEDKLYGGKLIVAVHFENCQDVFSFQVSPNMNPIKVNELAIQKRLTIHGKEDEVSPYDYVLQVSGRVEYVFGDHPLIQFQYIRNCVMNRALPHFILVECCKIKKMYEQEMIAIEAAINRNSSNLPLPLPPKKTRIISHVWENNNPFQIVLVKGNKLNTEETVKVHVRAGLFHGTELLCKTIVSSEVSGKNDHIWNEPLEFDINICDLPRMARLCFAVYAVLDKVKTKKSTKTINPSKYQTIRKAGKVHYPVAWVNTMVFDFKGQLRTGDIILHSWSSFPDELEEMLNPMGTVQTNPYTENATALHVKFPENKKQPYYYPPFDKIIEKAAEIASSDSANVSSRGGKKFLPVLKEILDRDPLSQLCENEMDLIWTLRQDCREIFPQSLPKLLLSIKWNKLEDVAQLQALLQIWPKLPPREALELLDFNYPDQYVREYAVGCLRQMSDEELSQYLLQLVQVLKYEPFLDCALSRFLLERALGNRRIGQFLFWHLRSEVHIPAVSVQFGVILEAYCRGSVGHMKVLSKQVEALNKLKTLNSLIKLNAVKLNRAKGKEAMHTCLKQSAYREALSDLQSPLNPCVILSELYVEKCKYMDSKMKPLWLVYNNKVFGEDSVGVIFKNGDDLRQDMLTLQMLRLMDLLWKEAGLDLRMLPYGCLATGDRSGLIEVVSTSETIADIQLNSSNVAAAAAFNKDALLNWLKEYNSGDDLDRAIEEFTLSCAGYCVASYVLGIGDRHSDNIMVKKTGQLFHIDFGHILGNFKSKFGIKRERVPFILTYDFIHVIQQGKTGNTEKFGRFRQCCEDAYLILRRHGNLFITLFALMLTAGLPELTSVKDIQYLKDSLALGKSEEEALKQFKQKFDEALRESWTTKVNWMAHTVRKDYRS
UniProt O00329, whole entry: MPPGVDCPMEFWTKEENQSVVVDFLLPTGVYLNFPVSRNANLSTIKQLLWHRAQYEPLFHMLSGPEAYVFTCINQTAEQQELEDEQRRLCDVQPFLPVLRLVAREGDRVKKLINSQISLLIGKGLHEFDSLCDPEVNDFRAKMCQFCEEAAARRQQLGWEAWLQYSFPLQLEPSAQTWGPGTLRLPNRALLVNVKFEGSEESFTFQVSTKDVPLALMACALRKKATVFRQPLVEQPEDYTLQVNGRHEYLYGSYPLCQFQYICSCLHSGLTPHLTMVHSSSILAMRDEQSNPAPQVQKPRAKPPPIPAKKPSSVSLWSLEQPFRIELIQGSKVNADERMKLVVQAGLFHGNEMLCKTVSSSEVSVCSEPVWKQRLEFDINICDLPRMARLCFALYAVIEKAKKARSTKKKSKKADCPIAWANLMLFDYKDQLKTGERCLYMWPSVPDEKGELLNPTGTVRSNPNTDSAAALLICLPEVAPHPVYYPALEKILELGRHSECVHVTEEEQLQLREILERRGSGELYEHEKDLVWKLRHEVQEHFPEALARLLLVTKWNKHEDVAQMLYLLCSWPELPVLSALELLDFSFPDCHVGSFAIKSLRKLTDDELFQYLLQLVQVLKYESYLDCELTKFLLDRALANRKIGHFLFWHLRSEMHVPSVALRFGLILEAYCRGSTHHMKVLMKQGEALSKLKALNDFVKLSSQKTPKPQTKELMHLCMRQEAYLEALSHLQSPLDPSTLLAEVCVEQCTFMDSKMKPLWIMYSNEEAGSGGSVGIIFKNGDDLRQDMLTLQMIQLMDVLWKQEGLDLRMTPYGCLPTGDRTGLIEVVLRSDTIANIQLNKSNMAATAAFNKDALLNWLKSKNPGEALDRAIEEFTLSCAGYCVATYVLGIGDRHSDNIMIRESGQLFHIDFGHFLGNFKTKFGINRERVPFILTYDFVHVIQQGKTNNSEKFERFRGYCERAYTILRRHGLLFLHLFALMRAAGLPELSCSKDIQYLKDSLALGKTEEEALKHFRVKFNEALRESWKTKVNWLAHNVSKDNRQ
UniProt P48736, whole entry: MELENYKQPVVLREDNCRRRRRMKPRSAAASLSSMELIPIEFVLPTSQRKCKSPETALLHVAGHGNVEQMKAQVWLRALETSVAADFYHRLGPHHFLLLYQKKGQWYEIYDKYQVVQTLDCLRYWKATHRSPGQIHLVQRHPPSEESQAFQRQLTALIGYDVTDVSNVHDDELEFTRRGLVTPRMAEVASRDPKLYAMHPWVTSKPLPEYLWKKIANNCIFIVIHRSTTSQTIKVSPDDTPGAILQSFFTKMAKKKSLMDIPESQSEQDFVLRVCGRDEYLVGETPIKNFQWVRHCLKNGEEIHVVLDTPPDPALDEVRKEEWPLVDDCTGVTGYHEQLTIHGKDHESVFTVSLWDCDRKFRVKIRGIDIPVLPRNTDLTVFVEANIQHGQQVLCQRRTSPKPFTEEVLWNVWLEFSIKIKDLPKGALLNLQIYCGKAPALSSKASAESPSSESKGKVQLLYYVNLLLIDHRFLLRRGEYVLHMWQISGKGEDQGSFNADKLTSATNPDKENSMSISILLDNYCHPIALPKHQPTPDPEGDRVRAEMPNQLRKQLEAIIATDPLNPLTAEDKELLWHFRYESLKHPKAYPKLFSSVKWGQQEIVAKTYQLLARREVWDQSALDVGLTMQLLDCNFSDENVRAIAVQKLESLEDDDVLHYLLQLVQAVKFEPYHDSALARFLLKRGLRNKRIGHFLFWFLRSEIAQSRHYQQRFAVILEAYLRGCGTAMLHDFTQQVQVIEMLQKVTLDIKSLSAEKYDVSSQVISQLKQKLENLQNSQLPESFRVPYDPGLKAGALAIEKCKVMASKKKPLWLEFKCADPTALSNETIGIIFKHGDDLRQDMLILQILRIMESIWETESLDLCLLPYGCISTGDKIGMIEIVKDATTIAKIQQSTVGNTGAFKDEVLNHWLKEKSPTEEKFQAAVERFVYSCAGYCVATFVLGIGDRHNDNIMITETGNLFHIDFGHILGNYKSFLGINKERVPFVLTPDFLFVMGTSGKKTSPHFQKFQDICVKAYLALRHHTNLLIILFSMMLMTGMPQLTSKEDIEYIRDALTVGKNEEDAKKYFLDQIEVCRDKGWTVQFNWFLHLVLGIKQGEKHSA
UniProt P27986, whole entry partner: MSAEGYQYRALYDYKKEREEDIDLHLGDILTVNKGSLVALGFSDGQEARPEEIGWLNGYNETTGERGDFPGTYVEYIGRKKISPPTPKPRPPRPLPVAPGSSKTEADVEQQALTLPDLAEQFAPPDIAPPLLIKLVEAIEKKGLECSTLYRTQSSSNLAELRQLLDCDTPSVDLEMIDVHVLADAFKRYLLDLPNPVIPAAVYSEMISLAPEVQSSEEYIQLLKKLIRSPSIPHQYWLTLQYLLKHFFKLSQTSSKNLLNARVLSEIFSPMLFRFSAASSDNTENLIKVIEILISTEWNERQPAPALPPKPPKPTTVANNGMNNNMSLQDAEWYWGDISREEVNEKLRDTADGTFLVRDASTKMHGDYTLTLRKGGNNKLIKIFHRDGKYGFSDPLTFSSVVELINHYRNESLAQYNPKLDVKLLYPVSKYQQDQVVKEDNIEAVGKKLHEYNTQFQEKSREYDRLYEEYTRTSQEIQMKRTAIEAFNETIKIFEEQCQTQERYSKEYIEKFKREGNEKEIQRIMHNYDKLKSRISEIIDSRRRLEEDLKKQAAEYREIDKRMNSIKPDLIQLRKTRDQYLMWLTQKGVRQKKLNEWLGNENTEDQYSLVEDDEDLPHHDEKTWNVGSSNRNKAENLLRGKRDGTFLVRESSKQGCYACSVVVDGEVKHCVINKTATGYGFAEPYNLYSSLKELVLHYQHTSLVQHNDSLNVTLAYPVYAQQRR

Experiment [1] addresses PI3Kα (Homo sapiens, UniProt P42336). The experiment can be described thus: In vitro test of enzyme activity (ADP-Glo lipokinase), PI3K alpha. The settings on record: read-out: PI3Kα IC50, 40 μM ATP, 50 μM PIP2:3PS, 120 min. Background: In ADP-Glo the light output rises with the ADP produced.
Experiment [2] has as its target PI3Kβ (Homo sapiens, UniProt P42338). The experiment can be described thus: In vitro test of enzyme activity (ADP-Glo lipokinase), PI3K beta. The settings on record: read-out: PI3Kβ IC50, 40 μM ATP, 50 μM PIP2:3PS, 120 min.
Experiment [3] concerns the target PI3Kδ (Homo sapiens, UniProt O00329). In words: In vitro test of enzyme activity (ADP-Glo lipokinase), PI3K delta. The settings on record: read-out: PI3Kδ IC50, 40 μM ATP, 50 μM PIP2:3PS, 120 min.
Experiment [4] has as its target PI3Kγ (Homo sapiens, UniProt P48736). In words: In vitro test of enzyme activity (ADP-Glo lipokinase), PI3K gamma. The settings on record: read-out: PI3Kγ IC50, 25 μM ATP, 50 μM PIP2:3PS, 120 min.

For orientation: IC50 means the midpoint of a concentration-inhibition curve. As to `CNC(=O)C(C)Cn1cnc2cc(F)c(-c3cnc(OC)c(NS(=O)(=O)c4ccc(F)cc4Cl)c3)cc2c1=O` (single isomer, unassigned) [WX121], the IC50 in experiment [1] was 23.6 nM; in experiment [2] it was above 10000 nM; in experiment [3], 294 nM; in experiment [4], 428 nM.
`Cc1ncc(-c2ccc3ncn(CC(C)C(=O)NC4CC4)c(=O)c3c2)cc1NS(=O)(=O)c1ccc(F)cc1Cl` (single isomer, unassigned) [WX054]: the IC50 amounted to 7.08 nM in experiment [1], 3640 nM in experiment [2], 62.5 nM in experiment [3] and 87.2 nM in experiment [4].
For the molecule `Cc1nc(C)c(S(=O)(=O)Nc2cc(-c3ccc4ncn(CC(C)C(=O)NC(C)C)c(=O)c4c3)cnc2C)s1` (single isomer, unassigned) [WX049], the IC50 worked out at 6.07 nM in experiment [1], 715 nM in experiment [2], 15.9 nM in experiment [3] and 26.5 nM in experiment [4].
Take `CNC(=O)[C@H]1C[C@@H](n2cnc3ccc(-c4cnc(C)c(NS(=O)(=O)c5ccc(F)cc5Cl)c4)cc3c2=O)C1`: the IC50 in experiment [1] worked out at 4.95 nM; in experiment [2], 239 nM; in experiment [3], 8.12 nM; in experiment [4], 60.8 nM.
Regarding `CNC(=O)C(C)CCn1cnc2ccc(-c3cnc(OC)c(NS(=O)(=O)c4ccc(F)cc4Cl)c3)cc2c1=O` (single isomer, unassigned) [WX050], the IC50 is 4.15 nM in experiment [1], 189 nM in experiment [2], 6.85 nM in experiment [3] and 15.8 nM in experiment [4].
As for `Cc1ncc(-c2ccc3ncn(CC(C)C(N)=O)c(=O)c3c2)cc1NS(=O)(=O)c1ccc(F)cc1Cl` (single isomer, unassigned) [WX028], the IC50 in experiment [1] is 3.09 nM; in experiment [2], 596 nM; in experiment [3], 34.5 nM; in experiment [4] it was 37.9 nM.
For the molecule `Cc1nc(C)c(S(=O)(=O)Nc2cc(-c3ccc4ncn(CC(C)C(=O)N5CCCC5)c(=O)c4c3)cnc2C)s1` (single isomer, unassigned) [WX053], the IC50 in experiment [1] is 4.3 nM; in experiment [2] it was 337 nM; in experiment [3] it was 2.4 nM; in experiment [4], 8.84 nM.
On to `CNC(=O)C(C)CCn1cnc2ccc(-c3cnc(OC)c(NS(=O)(=O)c4ccc(F)cc4Cl)c3)cc2c1=O` (single isomer, unassigned) [WX051], for which the IC50 in experiment [1] was 11.8 nM; in experiment [2], 265 nM; in experiment [3], 12 nM; in experiment [4], 29.4 nM.
For `Cc1nc(C)c(S(=O)(=O)Nc2cc(-c3ccc4ncn(CC(C)C(=O)NC(C)C)c(=O)c4c3)cnc2C)s1` (single isomer, unassigned) [WX048], the IC50 was 2.5 nM in experiment [1], 2050 nM in experiment [2], 18.9 nM in experiment [3] and 50 nM in experiment [4].
With `Cc1ncc(-c2ccc3ncn(CC(C)C(N)=O)c(=O)c3c2)cc1NS(=O)(=O)c1ccc(F)cc1Cl` (single isomer, unassigned) [WX029], the IC50 in experiment [1] came out at 4.88 nM; in experiment [2] it was 454 nM; in experiment [3], 28 nM; in experiment [4], 21.6 nM.
As for `COc1ncc(-c2ccc3ncn(CC(C)C(=O)NCC(C)C)c(=O)c3c2)cc1NS(=O)(=O)c1ccc(F)cc1Cl` (single isomer, unassigned) [WX072], the IC50 is 8.02 nM in experiment [1], 3400 nM in experiment [2], 24.3 nM in experiment [3] and 51.2 nM in experiment [4].
Consider `CNC(=O)C(C)Cn1cnc2ccc(-c3cnc(C)c(NS(=O)(=O)c4ccc(F)cc4Cl)c3)cc2c1=O` (single isomer, unassigned) [WX039], for which the IC50 in experiment [1] worked out at 5.85 nM; in experiment [2], 623 nM; in experiment [3], 31 nM; in experiment [4] it was 44.9 nM.
Consider `Cc1nc(C)c(S(=O)(=O)Nc2cc(-c3ccc4ncn(CC(C)C(=O)N(C)C)c(=O)c4c3)cnc2C)s1` (single isomer, unassigned) [WX042], for which the IC50 in experiment [1] stood at 1.68 nM; in experiment [2], 125 nM; in experiment [3] it was 4.22 nM; in experiment [4], 38 nM.
For `Cc1ncc(-c2ccc3ncn(CCCC(=O)NC(C)C)c(=O)c3c2)cc1NS(=O)(=O)c1ccc(F)cc1Cl`, the IC50 in experiment [1] turned out to be 3.15 nM; in experiment [2], 420 nM; in experiment [3], 24.2 nM; in experiment [4] it was 65.8 nM.
On the same counts, the results for `CCc1ncc(-c2ccc3ncn(CC(C)C(=O)NC)c(=O)c3c2)cc1NS(=O)(=O)c1ccc(F)cc1Cl` (single isomer, unassigned) [WX070] are 5.95 nM, 1840 nM, 81.8 nM and 85.5 nM.
On to `Cc1nc(C)c(S(=O)(=O)Nc2cc(-c3ccc4ncn([C@H]5C[C@@H](C(=O)NC(C)C)C5)c(=O)c4c3)cnc2C)s1`, for which the IC50 was determined as 1.18 nM in experiment [1], 238 nM in experiment [2], 1.23 nM in experiment [3] and 35.5 nM in experiment [4].
For the molecule `CCc1ncc(-c2ccc3ncn(CC(C)C(=O)NC)c(=O)c3c2)cc1NS(=O)(=O)c1ccc(F)cc1Cl` (single isomer, unassigned) [WX071], the IC50 worked out at 21.3 nM in experiment [1], 1730 nM in experiment [2], 61.1 nM in experiment [3] and 66.3 nM in experiment [4].
With `CNC(=O)C(O)Cn1cnc2ccc(-c3cnc(OC)c(NS(=O)(=O)c4ccc(F)cc4Cl)c3)cc2c1=O` (single isomer, unassigned) [WX044], the IC50 in experiment [1] worked out at 4.79 nM; in experiment [2], 74.5 nM; in experiment [3] it was 8.33 nM; in experiment [4], 9.4 nM.
With `Cc1nc(C)c(S(=O)(=O)Nc2cc(-c3ccc4ncn(CC(C)C(=O)N5CCCC5)c(=O)c4c3)cnc2C)s1` (single isomer, unassigned) [WX052], the IC50 in experiment [1] turned out to be 4.31 nM; in experiment [2], 344 nM; in experiment [3], 9.09 nM; in experiment [4] it was 63.8 nM.
In the case of `CNC(=O)C(O)Cn1cnc2ccc(-c3cnc(OC)c(NS(=O)(=O)c4ccc(F)cc4Cl)c3)cc2c1=O` (single isomer, unassigned) [WX045], the IC50 in experiment [1] is 1.37 nM; in experiment [2] it was 109 nM; in experiment [3] it was 6.41 nM; in experiment [4], 4.1 nM.
`CNC(=O)[C@H]1C[C@@H](n2cnc3ccc(-c4cncc(NS(=O)(=O)c5sc(C)nc5C)c4)cc3c2=O)C1`: the IC50 amounted to 4.93 nM in experiment [1], 809 nM in experiment [2], 41.4 nM in experiment [3] and 70.6 nM in experiment [4].
On to `CNC(=O)C(C)Cn1cnc2ccc(-c3cnc(OC)c(NS(=O)(=O)c4sc(C)nc4C)c3)cc2c1=O` (single isomer, unassigned) [WX069], for which the IC50 in experiment [1] is 0.6 nM; in experiment [2] it was 26 nM; in experiment [3] it was 0.21 nM; in experiment [4], 4.04 nM.
For `CNC(=O)[C@H]1C[C@H](n2cnc3ccc(-c4cncc(NS(=O)(=O)c5sc(C)nc5C)c4)cc3c2=O)C1`, the IC50 in experiment [1] turned out to be 1.13 nM; in experiment [2], 377 nM; in experiment [3], 10.5 nM; in experiment [4] it was 20.7 nM.
On the same counts, the results for `CCNC(=O)C(C)Cn1cnc2ccc(-c3cnc(OC)c(NS(=O)(=O)c4ccc(F)cc4Cl)c3)cc2c1=O` (single isomer, unassigned) [WX061] are 7.17 nM, 319 nM, 12.2 nM and 12.1 nM.
Turning to `COc1ncc(-c2ccc3ncn(CC(C)C(=O)NC4CC4)c(=O)c3c2)cc1NS(=O)(=O)c1ccc(F)cc1Cl` (single isomer, unassigned) [WX076], the IC50 in experiment [2] was found to be 605 nM; in experiment [3], 7.05 nM; in experiment [4], 14.7 nM.
As to `Cc1ncc(-c2ccc3ncn(CC(C)C(=O)NC4CC4)c(=O)c3c2)cc1NS(=O)(=O)c1ccc(F)cc1Cl` (single isomer, unassigned) [WX055], the IC50 in experiment [1] was found to be 18.6 nM; in experiment [2], 1320 nM; in experiment [3] it was 52.2 nM; in experiment [4], 59.7 nM.
Turning to `CNC(=O)C(C)Cn1cnc2ccc(-c3cnc(OC)c(NS(=O)(=O)c4c(F)cccc4F)c3)cc2c1=O` (single isomer, unassigned) [WX101], the IC50 in experiment [1] stood at 2.46 nM; in experiment [2] it was 132 nM; in experiment [3], 5.8 nM; in experiment [4], 11.2 nM.
On to `Cc1nc(C)c(S(=O)(=O)Nc2cc(-c3ccc4ncn(CC(C)C(=O)N(C)C)c(=O)c4c3)cnc2C)s1` (single isomer, unassigned) [WX043], for which the IC50 in experiment [1] amounted to 3.6 nM; in experiment [2] it was 212 nM; in experiment [3], 3.58 nM; in experiment [4], 17.9 nM.
In the case of `CNC(=O)C(C)Cn1cnc2ccc(-c3cnc(C)c(NS(=O)(=O)c4ccc(F)cc4Cl)c3)cc2c1=O` (single isomer, unassigned) [WX038], the IC50 in experiment [2] was determined as 1220 nM; in experiment [3], 49.6 nM; in experiment [4] it was 63.6 nM.
On to `COc1ncc(-c2ccc3ncn(CC(C)C(=O)NCCO)c(=O)c3c2)cc1NS(=O)(=O)c1ccc(F)cc1Cl` (single isomer, unassigned) [WX080], for which the IC50 in experiment [1] was found to be 1.72 nM; in experiment [2], 260 nM; in experiment [3], 11.7 nM; in experiment [4], 10.9 nM.
Consider `COc1ncc(-c2ccc3ncn(CC(C)C(=O)NC4CCC4)c(=O)c3c2)cc1NS(=O)(=O)c1ccc(F)cc1Cl` (single isomer, unassigned) [WX074], for which the IC50 was found to be 8.38 nM in experiment [1], 1560 nM in experiment [2], 17.8 nM in experiment [3] and 27.4 nM in experiment [4].
